# Measured values: PubChem BioAssay AID686979 (National Center for Advancing Translational Sciences (NCATS), 2013)
# The entries are a selection whose mix differs from that of the whole data set. Results filed as inconclusive are left out. Activity calls are given as the source filed them. Calls come from the whole dose curve; as a rule, active = well fitted inhibition curve with a large enough effect; inconclusive = small, poorly fitted or top-dose-only effect; inactive = flat fitted curve, though single readings scatter.
# Assay: qHTS for Inhibitors of human tyrosyl-DNA phosphodiesterase 1 (TDP1): qHTS in cells in presence of CPT; note: nearly all actives have a fitted effect of over 55% in size
# Conditions: chicken DT40 Tdp1-/-;hTDP1 cells + 20 nM CPT, ATP luminescence, 48 h; at 46.2 µM (top of the series)
# % is set by controls: 0 for no effect and ±100 for the full control effect.
row,SMILES,"activity change, negative = growth inhibition"
1,CN(C)C(=O)OCCc1n(C)cc[n+]1C,inactive: -13.7%
